## Antibody variant affinities, Ab-14 light chain, assay 1

Reference: Engelhart et al. 2022, doi:10.1038/s41597-022-01779-4. File: FLAb, binding data.

Antigen: PDVDLGDISGINAS, a 14-residue peptide of the SARS-CoV-2 spike HR2 region.

Parent scFv Ab-14: VH joined to VL by a 15-residue (Gly4Ser)3 linker. Changes lie in the light chain CDRs alone.
VH: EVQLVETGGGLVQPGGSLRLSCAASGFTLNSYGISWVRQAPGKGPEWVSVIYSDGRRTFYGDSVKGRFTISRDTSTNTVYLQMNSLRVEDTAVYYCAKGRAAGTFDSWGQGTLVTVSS
VL: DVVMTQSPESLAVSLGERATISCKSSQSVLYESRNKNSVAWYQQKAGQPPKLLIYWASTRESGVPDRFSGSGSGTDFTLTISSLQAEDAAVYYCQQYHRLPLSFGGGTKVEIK

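Phage display of a naive human antibody library on the peptide gave the parent. In library AAYL50, one, two or three CDR residues were substituted; doubles and triples were drawn at random. Affinity was read by AlphaSeq, a pooled yeast mating assay with surface-displayed partners. Mating (16 h, 30 °C) was followed by selection of diploids and sequencing of their barcodes. Scores were corrected for input abundance and mapped to Kd with protein pairs of known affinity run in the same pool. There are three technical replicates.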

Each variant is given by its three light chain CDRs, as the data file delimits them; those of the parent are KSSQSVLYESRNKNSVA, WASTRES, QQYHRLPLS.
Scale: log10 of Kd in nM, estimated from mating counts; low values are strong binders.
A mean of the replicates is given; it leaves out those without a signal.
Where no diploid with the target was found in that replicate, the entry reads "ND": below detection, most likely a poor binder, though not proof of it.
Parent in this assay: reference entry 0.65, copy in this library 1.68.
As a blank, each scFv also met three strains without target: over library AAYL50, 18% of these pairings were detected, typically at 4.19 and seldom below 2.99. Also given: how often the same scFv was detected with the empty control strains, with their mean in brackets.

CDR-L1 | CDR-L2 | CDR-L3 | replicates, log10 nM | mean, log10 nM | signal with controls
KSSQMVLYHSRNKNSVA | WASTREP | QQYHRLPLS | 2.04 2.01 3.07 | 2.37 | 0 of 9
KSSQSWLYESRNKNSVA | WASTRES | AQYHRLPLV | 3.86 2.65 4.74 | 3.75 | 1 of 9 (3.12)
KSSQSVLYESRNQNKVA | WASTVES | QQYHRLPLS | ND ND ND | ND | 1 of 9 (3.27)
KSSQSVLYESRNKISVA | WASTREY | QQYPRLPLS | ND ND ND | ND | 0 of 9
KFSQSVLYESRNKYSVA | WASTREK | QQYHRLPLS | 1.16 1.77 1.48 | 1.47 | 0 of 9
KKSQSVLYVSRNKNSCA | WASTRES | QQYHRLPLS | ND ND ND | ND | 0 of 9
KSIQSVLYESRNKNSVA | WASTREE | QQYRRLPLS | 1.33 1.52 2.07 | 1.64 | 0 of 9
KSSQSVLKESRNKNSVA | WASTREQ | QQYHRAPLS | 1.50 1.52 1.52 | 1.52 | 0 of 9
KSSQSVLYNSRNKNSVA | WASTNGS | QQYHRLPLS | ND ND ND | ND | 0 of 9
KSSQSVPYESRNKNSVA | WASTRES | QQYHRLPFI | 0.67 0.82 0.75 | 0.75 | 4 of 9 (4.85)
KSSQSVLYESRNKNKVA | WASTSES | QMYHRLPLS | ND ND 5.79 | 5.79 | 0 of 9
KSSQSVLYTSRNKNGVA | WAGTRES | QQYHRLPLS | ND ND 4.56 | 4.56 | 0 of 9
KSDQSVLYTSRNKNSVA | WAMTRES | QQYHRLPLS | ND ND ND | ND | 0 of 9
KNSQSVLYESRNKNSVA | WASPRES | QQYHRFPLS | 3.92 5.00 ND | 4.46 | 3 of 9 (3.50)
KMPQSVLYESRNKNSVA | WANTRES | QQYHRLPLS | -0.33 0.03 -0.15 | -0.15 | 2 of 9 (3.68)
KSSQSVLYESWNKNSVA | WASTKES | QQYTRLPLS | ND ND 3.27 | 3.27 | 0 of 9
KSSQSWLYESTHKNSVA | WASTRES | QQYHRLPLS | ND 4.24 ND | 4.24 | 2 of 9 (3.45)
KSSQSVLYESRNKNHVA | WAKTRES | QGYHRLPLS | ND ND ND | ND | 0 of 9
KSSQSVLYESRCKNSVA | WASTREM | QQYHRLVLS | 1.42 1.76 1.68 | 1.62 | 1 of 9 (3.74)
KQSQSVLYESHNKNSVA | WLSTRES | QQYHRLPLS | ND ND ND | ND | 0 of 9
KSSQSVLYESRNKNSMA | AASTRES | QQSHRLPLS | 0.96 1.03 0.95 | 0.98 | 7 of 9 (5.21)
KSSQSVLYEQRNKNSVA | WASTRES | QQYHRAPLS | ND 1.71 ND | 1.71 | 0 of 9
KSSQSVLAESRNKDSVA | WASTRES | QQYHPLPLS | 0.74 0.83 0.78 | 0.78 | 0 of 9
KSSDSVLYESRNKNSVA | WAVTRES | QQYHRTPLS | 4.39 5.37 ND | 4.88 | 4 of 9 (3.67)
KNSQTVLYESRNKNSTA | WASTRES | QQYHRLPLS | ND 4.89 ND | 4.89 | 3 of 9 (5.39)
KSSQSVLYESRQKNSPA | WASTRES | QQYHRLVLS | ND ND ND | ND | 0 of 9
KSSQSVLYESRNKNMVA | WASTRKS | QQYIRLPLS | ND ND ND | ND | 1 of 9 (4.47)
KSSQSVLYDSRNKNTVA | WASTRES | QQYHRLDLS | ND ND ND | ND | 1 of 9 (3.55)
KSSQSVLTESRNKNSVA | WASTRQS | QVYHRLPLS | ND ND ND | ND | 0 of 9
KSSQSFAYESRNKNHVA | WASTRES | QQYHRLPLS | 1.58 1.52 1.70 | 1.60 | 5 of 9 (4.71)
KSSQSVLYESRNKNSVA | AAGMRES | QQYHRLPLS | -0.19 0.28 0.06 | 0.05 | 3 of 9 (5.47)
GSSQSVLYEYRNKNSVA | WASTRLS | QQYHRLPLS | 2.83 2.09 2.06 | 2.33 | 1 of 9 (2.55)
KSSQSVLYESRNKNSVA | WAATHES | QQYHRKPLS | ND ND ND | ND | 0 of 9
KSSRSVLYESRNKNSVA | WASLRES | QQYHRLPWS | 1.64 1.57 1.80 | 1.67 | 3 of 9 (3.40)
MSSQSVLYESRNKNSVA | WASQRES | QQYHRLPLK | 3.37 ND ND | 3.37 | 1 of 9 (4.03)
KSSQKVLYESINKNSVA | WASTRES | QQYHRLKLS | ND ND ND | ND | 2 of 9 (2.93)
KSSQSVLYESRNKNSVA | WASTREK | QQYHRKPLD | ND ND ND | ND | 0 of 9
KSSQSVLYESRNKNSVE | WASTRPS | QQYHRLPLS | ND ND ND | ND | 1 of 9 (3.45)
KSSQSVLYESRPKNSVA | WASTRES | QQYTRQPLS | 1.70 2.18 1.95 | 1.94 | 3 of 9 (4.54)
KSSQSVLYESRNENSVA | WASPRES | QQYHQLPLS | ND 4.53 ND | 4.53 | 0 of 9
KSSQSVMYESRNLNSVA | WASTRES | QQAHRLPLS | 3.91 2.68 3.30 | 3.29 | 2 of 9 (4.56)
KSSSSHLYESRNKNSVA | WASTRES | QQYHRLPLV | 0.63 0.85 0.86 | 0.78 | 1 of 9 (3.99)

The 4 strongest on average among those seen in every replicate, once more:

CDR-L1 | CDR-L2 | CDR-L3 | replicates, log10 nM | mean, log10 nM | signal with controls
KMPQSVLYESRNKNSVA | WANTRES | QQYHRLPLS | -0.33 0.03 -0.15 | -0.15 | 2 of 9 (3.68)
KSSQSVLYESRNKNSVA | AAGMRES | QQYHRLPLS | -0.19 0.28 0.06 | 0.05 | 3 of 9 (5.47)
KSSQSVPYESRNKNSVA | WASTRES | QQYHRLPFI | 0.67 0.82 0.75 | 0.75 | 4 of 9 (4.85)
KSSSSHLYESRNKNSVA | WASTRES | QQYHRLPLV | 0.63 0.85 0.86 | 0.78 | 1 of 9 (3.99)